Measured values reported in patent US20220338463A1, “METHOD OF PRODUCING LYOPHILIZED CELLS” (LONZA LTD, priority 2019, published 2022).

System: SK-N-AS cells
Assay: ALAMARBLUE assay of plated cells after freeze-thaw of suspended cells
Type: cell-based, Human
Settings: 2% (v/v) NEAA, 4.5 g/L glucose, 2.5% HSA; FIG. 12
Protocol: The cells were plated on a 96-well plate in a density of 2.25×10^5 cells/cm^2 and diluted with medium to the final volume of 200 μL inside the well. The cells were then incubated overnight at 37° C. and 5% CO2 so they attached to the wells. Cells were stained with 10 μL ALAMARBLUE® reagent per 100 μL of medium in the well and incubated for 4 h. Same procedure was applied for a blank, where 200 μL of medium was pipetted into the well. After that, 100 μL of solution above the cells was pipetted into a black non-transparent 96-well plate and fluorescence was measured with SPECTRAMAX® plate reader (excitation λ=550 nm, emission λ=590 nm).
Formulations were prepared in 50 mL Falcon tubes and subsequently sterile filtered under the bench with 0.22 μm syringe filter and a syringe. […]
Subsequently, the vials were taken from the −80° C. freezer and rapidly thawed in the water bath at 37° C. Immediately after thawing, 0.1 mL of cell suspension was 2× diluted with medium and counted with NucleoCounter to obtain cell viability [%] and concentration inside the vial. […]
Calculated volume was diluted inside of the well with cell growth medium, so that the final volume was 0.2 mL. […]
ALAMARBLUE® on the other hand, contains a reagent called resazurin. […] The intensity of fluorescence is proportional to the amount of cells that are able to metabolize resazurin and are thus considered viable.

Substance: HSA: human serum albumin, cell medium supplement
- cell survival during freeze-thaw, supplement added to 1M propylene glycol vs 1M propylene glycol: no major benefit on cell survival
